Results: patent US20240368565A1, “COMPLEMENTATION-BASED TAGS AND REPORTERS FOR DUAL-MODALITY LABELING” (Promega Corporation, priority 2023, published 2024)

By UniProt entry, the sequences of proteins in these tests, tags left out. Chains listed by the source or under a name are the forms on record and can include a tag or linker. Residues count along the entry.
UniProt P0A3G2, 23-290 with tags or gaps with the stated changes: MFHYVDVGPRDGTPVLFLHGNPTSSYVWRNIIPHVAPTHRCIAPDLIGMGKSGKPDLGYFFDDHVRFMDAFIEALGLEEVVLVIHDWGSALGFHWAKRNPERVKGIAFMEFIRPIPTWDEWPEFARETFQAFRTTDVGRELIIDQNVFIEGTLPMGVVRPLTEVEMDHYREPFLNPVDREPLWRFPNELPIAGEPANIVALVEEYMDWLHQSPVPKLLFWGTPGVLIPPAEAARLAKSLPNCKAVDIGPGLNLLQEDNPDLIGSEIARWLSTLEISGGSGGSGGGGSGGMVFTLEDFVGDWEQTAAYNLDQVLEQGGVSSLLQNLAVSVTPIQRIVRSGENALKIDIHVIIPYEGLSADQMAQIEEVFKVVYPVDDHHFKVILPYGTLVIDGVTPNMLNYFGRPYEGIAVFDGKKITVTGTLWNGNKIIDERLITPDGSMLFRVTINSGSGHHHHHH

Target: HaloTag[22-297](M2F + D53G + K140E)-12xGly/Ser-LgBiT-3xGly/Ser-6xHis (Rhodococcus rhodochrous, UniProt P0A3G2, A155T/A167V/A172T/A224E/C128F/C176G/D73G/D78G/E257K/H272N/K175M/K195N/L47V/L88M/N227D/S58T/T264A/Y273L/Y87F)
Assay: Biolayer interferometry, polypeptide reporter/synthetic peptide complementation
Type: binding
Details: biotinylated peptide on streptavidin probes, PBST, 25° C.

Q: Which Kd does the source give for `CC[C@H](C)[C@H](NC(=O)[C@H](CCCCN)NC(=O)[C@H](CCCCN)NC(=O)[C@H](Cc1ccccc1)NC(=O)[C@H](CC(C)C)NC(=O)[C@H](CCCNC(=N)N)NC(=O)[C@H](Cc1c[nH]c2ccccc12)NC(=O)CNC(=O)[C@H](CO)NC(=O)[C@@H](NC(=O)[C@H](CO)NC(=O)[C@@H](NC(=O)CCCC[C@@H]1SC[C@@H]2NC(=O)N[C@@H]21)C(C)C)C(C)C)C(=O)N[C@@H](CO)C(=O)NCC(=O)NCC(=O)N[C@@H](CO)C(=O)NCC(=O)NCC(=O)N[C@@H](CCC(=O)O)C(=O)N[C@@H](CCCNC(=N)N)C(=O)NCC(=O)N[C@H](C(=O)NCC(=O)N[C@@H](Cc1ccccc1)C(=O)N1CCC[C@H]1C(=O)N[C@@H](Cc1ccccc1)C(=O)N[C@@H](CC(=O)O)C(=O)N1CCC[C@H]1C(=O)N[C@@H](Cc1c[nH]cn1)C(=O)N[C@@H](Cc1ccc(O)cc1)C(=O)N[C@H](C(=O)N[C@@H](CCC(=O)O)C(=O)N[C@H](C(=O)N[C@@H](CC(C)C)C(=O)NCC(=O)O)C(C)C)C(C)C)[C@@H](C)O` here?
A: Its Kd is 0.782 nM.
